# Assays:
# Sequences of proteins named here, by UniProt entry; tags and fusion partners are left off. A change or cut given only in a name is not applied to a line headed by its entry.
# UniProt P21452, whole entry: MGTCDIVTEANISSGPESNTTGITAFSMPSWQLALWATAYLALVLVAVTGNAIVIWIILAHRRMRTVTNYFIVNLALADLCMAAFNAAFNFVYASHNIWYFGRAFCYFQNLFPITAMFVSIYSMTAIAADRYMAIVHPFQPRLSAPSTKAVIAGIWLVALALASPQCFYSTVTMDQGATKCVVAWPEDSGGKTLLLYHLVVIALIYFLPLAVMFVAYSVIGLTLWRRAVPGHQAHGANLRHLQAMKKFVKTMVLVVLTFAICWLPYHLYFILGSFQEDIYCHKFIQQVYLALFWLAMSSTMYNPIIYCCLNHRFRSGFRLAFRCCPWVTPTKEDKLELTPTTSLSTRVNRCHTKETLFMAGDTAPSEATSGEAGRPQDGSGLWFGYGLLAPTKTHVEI
# UniProt P43116: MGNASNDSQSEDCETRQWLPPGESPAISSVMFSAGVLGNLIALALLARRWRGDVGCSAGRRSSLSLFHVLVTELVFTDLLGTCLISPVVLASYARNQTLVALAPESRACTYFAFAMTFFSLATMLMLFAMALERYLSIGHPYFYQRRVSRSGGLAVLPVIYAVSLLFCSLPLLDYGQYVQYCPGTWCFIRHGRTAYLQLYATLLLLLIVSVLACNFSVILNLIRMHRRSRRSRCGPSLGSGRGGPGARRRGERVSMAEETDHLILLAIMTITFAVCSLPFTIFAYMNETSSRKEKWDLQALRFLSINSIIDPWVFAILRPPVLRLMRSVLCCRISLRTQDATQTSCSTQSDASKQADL
# Substance-K receptor = Substance-K receptor (Homo sapiens, UniProt P21452); experiment: Displacement of [125I]NKA from human recombinant NK2 receptor expressed in CHO cells; format: cell-based
# [1] = biological target: Prostaglandin E2 receptor EP2 subtype (Homo sapiens, UniProt P43116); experiment: Displacement of [3H]PGE2 from human recombinant prostanoid EP2 receptor expressed in HEK293 cells; format: cell-based
IC50 [1] [nM],SMILES,IC50 (Substance-K receptor) [nM]
–,CCCCC(NC(=O)[C@H](CC(C)C)NC(=O)CNC(=O)[C@@H](NC(=O)[C@H](Cc1ccccc1)NC(=O)[C@H](CO)NC(=O)[C@@H](N)CC(=O)O)C(C)C)C(N)=O (some centres not stated),3.5
2.6,CCCCC[C@H](O)/C=C/[C@H]1[C@H](O)CC(=O)[C@@H]1C/C=C\CCCC(=O)O [DINOPROSTONE],–

# Source: ChEMBL document CHEMBL3774372, “Design, physico-chemical properties and biological evaluation of some new N-[(phenoxy)alkyl]- and N-{2-[2-(phenoxy)ethoxy]ethyl}aminoalkanols as anticonvulsant agents” (Bioorg Med Chem, 2016)
